# Experimental data as given in patent US20230348426A1, “OXOPYRROLIDINE FPR2 AGONISTS” (Bristol-Myers Squibb Company, priority 2020, published 2023).
# Sequences of proteins named here, by UniProt entry; tags and fusion partners are left off.
# UniProt P25090, whole entry: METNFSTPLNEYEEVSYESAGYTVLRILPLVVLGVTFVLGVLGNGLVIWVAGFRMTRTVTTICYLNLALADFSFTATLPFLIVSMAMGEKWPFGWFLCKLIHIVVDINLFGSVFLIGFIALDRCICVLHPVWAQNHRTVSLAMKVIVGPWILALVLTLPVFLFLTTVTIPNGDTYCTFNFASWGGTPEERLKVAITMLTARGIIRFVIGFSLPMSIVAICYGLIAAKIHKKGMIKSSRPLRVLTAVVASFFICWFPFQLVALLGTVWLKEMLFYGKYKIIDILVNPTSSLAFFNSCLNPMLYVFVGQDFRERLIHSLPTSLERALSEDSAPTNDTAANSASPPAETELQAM
# UniProt P21462, whole entry: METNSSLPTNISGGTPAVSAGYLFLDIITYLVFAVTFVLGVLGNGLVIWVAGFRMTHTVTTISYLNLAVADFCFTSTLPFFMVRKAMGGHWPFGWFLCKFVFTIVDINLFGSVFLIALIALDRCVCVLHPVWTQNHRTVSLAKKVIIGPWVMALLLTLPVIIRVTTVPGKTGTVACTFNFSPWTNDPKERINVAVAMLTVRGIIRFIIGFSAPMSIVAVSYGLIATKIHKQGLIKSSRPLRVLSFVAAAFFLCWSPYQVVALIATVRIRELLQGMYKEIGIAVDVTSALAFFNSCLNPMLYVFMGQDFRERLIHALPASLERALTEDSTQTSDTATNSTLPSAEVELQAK
# Key:
# human FPR2 = human FPR2 (Homo sapiens (Human), UniProt P25090); experiment: FPR2 cyclic adenosine monophosphate (cAMP) assay; settings: read-out: hFPR2 cAMP2 EC50; CHO cells overexpressing human FPR2; forskolin 5 µM; inhibition of cAMP production
# human FPR1 = human FPR1 (Homo sapiens (Human), UniProt P21462); experiment: FPR1 cyclic adenosine monophosphate (cAMP) assay; settings: read-out: hFPR1 cAMP EC50; CHO cells overexpressing human FPR1; forskolin 10 µM; inhibition of cAMP production
Structure (SMILES),EC50 (human FPR2) [nM],EC50 (human FPR1) [nM]
CCn1cccc(N2C[C@@H](c3ccc(Cl)cc3)[C@H](NC(=O)c3ccc(OC(F)F)cc3)C2=O)c1=O,3.9,7
COc1ccc([C@@H]2CN(c3cccn(CCO)c3=O)C(=O)[C@H]2NC(=O)c2ccc(OC(F)F)cc2)cc1,2,12
COc1cc(F)c([C@@H]2CN(c3nccc(N4C[C@@H]5C[C@H]4CN5C)c3C(F)(F)F)C(=O)[C@H]2NC(=O)c2ccc(OC(F)F)cc2)c(F)c1,6.3,460
COc1cc(F)c([C@@H]2CN(c3cccc(OCCO)n3)C(=O)[C@H]2NC(=O)c2ccc(OC(F)F)cc2)c(F)c1,1.6,750
COc1cc(C2CCN(CCO)CC2)nc(N2C[C@@H](c3c(F)cc(OC)cc3F)[C@H](NC(=O)c3ccc(OC(F)F)cc3)C2=O)c1,2.7,> 5000
COCC(C(=O)N(C)C)n1ccc(C)c(N2C[C@@H](c3ccc(OC)cc3)[C@H](NC(=O)c3ccc(OC(F)(F)F)cc3)C2=O)c1=O (stereo partly drawn),3.8,0.1
COc1cc(F)c([C@H]2[C@H](NC(=O)c3ccc(OC(F)(F)F)cc3)C(=O)N(c3cccn(CCO)c3=O)[C@@H]2C)c(F)c1,7.5,370
COc1cc(F)c([C@@H]2CN(c3cccn(CC4CC4)c3=O)C(=O)[C@H]2NC(=O)c2ccc(OC(F)F)cc2)c(F)c1,6.2,13
COc1cc(F)c([C@@H]2CN(c3ccnc(N4CCN(C)CC4)c3C#N)C(=O)[C@H]2NC(=O)c2ccc(OC(F)F)cc2)c(F)c1,1.8,500
